{"sequences": {"note": "Sequences of proteins named here, by UniProt entry; tags and fusion partners are left off. Residues count along the entry.", "UniProt P22303, 32-614": "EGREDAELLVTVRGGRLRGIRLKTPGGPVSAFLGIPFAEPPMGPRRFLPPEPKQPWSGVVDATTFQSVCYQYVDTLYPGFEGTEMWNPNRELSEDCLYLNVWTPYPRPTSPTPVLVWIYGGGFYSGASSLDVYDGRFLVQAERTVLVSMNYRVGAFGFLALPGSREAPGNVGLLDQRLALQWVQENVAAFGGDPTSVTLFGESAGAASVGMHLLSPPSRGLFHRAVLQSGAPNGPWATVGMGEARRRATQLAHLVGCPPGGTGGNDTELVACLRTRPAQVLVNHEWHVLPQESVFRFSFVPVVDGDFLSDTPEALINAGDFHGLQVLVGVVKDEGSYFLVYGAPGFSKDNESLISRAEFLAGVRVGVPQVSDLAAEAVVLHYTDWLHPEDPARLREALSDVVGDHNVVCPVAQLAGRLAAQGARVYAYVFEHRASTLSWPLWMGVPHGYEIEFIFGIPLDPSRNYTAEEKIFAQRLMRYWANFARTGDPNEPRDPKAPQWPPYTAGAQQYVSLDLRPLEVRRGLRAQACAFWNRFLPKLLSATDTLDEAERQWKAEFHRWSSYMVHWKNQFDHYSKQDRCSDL"}, "source": "paper PMC8041433", "about": "(Environmental Health Perspectives, 2021)", "key": {"recombinant human AChE [1]": {"molecular_target": "T1, recombinant human AChE (Homo sapiens, UniProt P22303)", "test": "biochemical"}, "AChE in SH-SY5Y cells": {"molecular_target": "AChE in SH-SY5Y cells (Homo sapiens, UniProt P22303)", "test": "cell-based", "type": "cell-based"}, "[2]": {"molecular_target": "AChE in neural stem cell spheroids (Homo sapiens, UniProt P22303)", "test": "cell-based", "conditions": "potency (IC50)"}, "recombinant human AChE [3]": {"molecular_target": "T1, recombinant human AChE", "test": "biochemical", "remark": "listed apart in the source"}, "[4]": {"molecular_target": "AChE in SH-SY5Y spheroids (Homo sapiens, UniProt P22303)", "test": "cell-based", "conditions": "potency (IC50), SH-SY5Y spheroids (48 h)"}, "recombinant human AChE [5]": {"molecular_target": "T1, recombinant human AChE"}, "recombinant human AChE [6]": {"molecular_target": "T1, recombinant human AChE", "test": "biochemical", "type": "biochemical"}}, "note": "Several values for one entry are separate records, joined by “and”; a condition that tells them apart may be missing. Equal values may be shown once. Where a name gives a salt, the structure may show the parent alone. Read-outs that look alike come from different tables or passages of the source. For IR or R in this document: key: Reversible (R); Irreversible (IR); ND, not detected in enzyme-based AChE inhibition assay from current study."}
{"compound": "COP(=S)(OC)SCn1nnc2ccccc2c1=O", "note": "[Azinphos-methyl]", "values": [{"measurement": "IC50", "setting": "recombinant human AChE [1]; IC50 (uM)", "value": "79.6 µM and 78.1 µM"}, {"measurement": "IC50", "setting": "AChE in SH-SY5Y cells; IC50 (uM)", "value": "28.3 µM and 39.1 µM and 17.8 µM and 34.9 µM"}]}
{"compound": "O=C(CCC1CCN(Cc2ccccc2)CC1)c1ccc2c(c1)NCCCC2.O=C(O)/C=C/C(=O)O", "note": "[Zanapezil fumerate, reference compound]", "values": [{"measurement": "IC50", "setting": "AChE in SH-SY5Y cells; read-out: IC50", "value": 0.195, "unit": "µM"}]}
{"compound": "CCOP(=S)(Oc1ccc([N+](=O)[O-])cc1)c1ccccc1", "note": "(stereo not shown) [EPN]", "values": [{"measurement": "IC50", "setting": "[2]; Neural stem cell spheroid (24 h)", "value": 14.8, "unit": "µM"}, {"measurement": "IC50", "setting": "[2]; Neural stem cell spheroid (48 h)", "value": 26.8, "unit": "µM"}, {"measurement": "IC50", "setting": "recombinant human AChE [3]", "value": "67 ± 19.7", "unit": "µM"}, {"measurement": "IC50", "setting": "[4]", "value": 7.88, "unit": "µM"}]}
{"compound": "CCC1(c2cccc(O)c2)CCCCN(C)C1", "note": "(stereo not shown) [Meptazinol hydrochloride, reference compound]", "values": [{"measurement": "CC-v2 (curve classes)", "setting": "recombinant human AChE [1]", "value": -2.1}, {"measurement": "Efficacy", "setting": "recombinant human AChE [1]", "value": -86}, {"measurement": "CC-v2 (curve classes)", "setting": "recombinant human AChE [5]", "value": 4}, {"measurement": "Efficacy", "setting": "recombinant human AChE [5]", "value": -26.331}, {"measurement": "CC-v2 (curve classes)", "setting": "AChE in SH-SY5Y cells", "value": -2.1}, {"measurement": "IR or R", "setting": "recombinant human AChE [6]", "value": "R"}]}
